Results published in ChEMBL document CHEMBL5375999, “Discovery of a Dual Tubulin and Neuropilin-1 (NRP1) Inhibitor with Potent In Vivo Anti-Tumor Activity via Pharmacophore-based Docking Screening, Structure Optimization, and Biological Evaluation” (J Med Chem, 2023).

Chains of the proteins cited; added tags and fusions are not shown. Lines headed by an entry give the natural chain unless they say otherwise; changes in a name come on top.
UniProt P68371: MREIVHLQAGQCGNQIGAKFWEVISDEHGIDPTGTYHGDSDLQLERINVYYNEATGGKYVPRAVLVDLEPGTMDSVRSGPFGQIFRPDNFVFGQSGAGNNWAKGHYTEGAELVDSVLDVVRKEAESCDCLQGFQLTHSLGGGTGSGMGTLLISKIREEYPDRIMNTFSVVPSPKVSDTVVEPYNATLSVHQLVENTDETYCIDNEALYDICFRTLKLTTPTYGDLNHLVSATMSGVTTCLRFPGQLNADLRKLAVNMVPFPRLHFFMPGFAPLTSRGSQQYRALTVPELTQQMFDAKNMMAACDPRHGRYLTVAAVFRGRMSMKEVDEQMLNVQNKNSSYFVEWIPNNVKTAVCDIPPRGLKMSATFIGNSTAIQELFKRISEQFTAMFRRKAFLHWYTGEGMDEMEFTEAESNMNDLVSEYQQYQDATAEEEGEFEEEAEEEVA
UniProt Q9H4B7: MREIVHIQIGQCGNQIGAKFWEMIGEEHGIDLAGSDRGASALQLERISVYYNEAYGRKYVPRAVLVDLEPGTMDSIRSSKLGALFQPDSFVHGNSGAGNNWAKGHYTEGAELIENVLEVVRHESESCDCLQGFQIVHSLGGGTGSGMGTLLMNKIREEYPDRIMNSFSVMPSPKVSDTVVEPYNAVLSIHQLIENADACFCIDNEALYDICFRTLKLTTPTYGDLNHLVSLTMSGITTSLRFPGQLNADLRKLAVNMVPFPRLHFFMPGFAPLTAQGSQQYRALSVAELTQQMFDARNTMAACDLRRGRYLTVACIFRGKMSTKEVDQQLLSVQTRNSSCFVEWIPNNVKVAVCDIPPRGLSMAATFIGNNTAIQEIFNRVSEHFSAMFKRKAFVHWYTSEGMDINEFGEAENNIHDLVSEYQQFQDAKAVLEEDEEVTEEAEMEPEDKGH
UniProt P0DPH7: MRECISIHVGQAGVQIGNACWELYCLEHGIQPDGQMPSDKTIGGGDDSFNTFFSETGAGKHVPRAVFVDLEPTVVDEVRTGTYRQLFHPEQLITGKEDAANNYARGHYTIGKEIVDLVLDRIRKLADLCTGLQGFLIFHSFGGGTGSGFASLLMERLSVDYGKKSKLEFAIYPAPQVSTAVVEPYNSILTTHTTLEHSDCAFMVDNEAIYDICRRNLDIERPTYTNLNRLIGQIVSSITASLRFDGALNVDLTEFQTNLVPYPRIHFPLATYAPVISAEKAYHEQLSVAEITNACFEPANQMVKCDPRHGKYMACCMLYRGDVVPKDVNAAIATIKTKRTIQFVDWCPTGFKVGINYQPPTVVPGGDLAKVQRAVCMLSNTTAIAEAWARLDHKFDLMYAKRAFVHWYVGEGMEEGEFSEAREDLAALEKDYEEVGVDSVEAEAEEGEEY
UniProt P68366: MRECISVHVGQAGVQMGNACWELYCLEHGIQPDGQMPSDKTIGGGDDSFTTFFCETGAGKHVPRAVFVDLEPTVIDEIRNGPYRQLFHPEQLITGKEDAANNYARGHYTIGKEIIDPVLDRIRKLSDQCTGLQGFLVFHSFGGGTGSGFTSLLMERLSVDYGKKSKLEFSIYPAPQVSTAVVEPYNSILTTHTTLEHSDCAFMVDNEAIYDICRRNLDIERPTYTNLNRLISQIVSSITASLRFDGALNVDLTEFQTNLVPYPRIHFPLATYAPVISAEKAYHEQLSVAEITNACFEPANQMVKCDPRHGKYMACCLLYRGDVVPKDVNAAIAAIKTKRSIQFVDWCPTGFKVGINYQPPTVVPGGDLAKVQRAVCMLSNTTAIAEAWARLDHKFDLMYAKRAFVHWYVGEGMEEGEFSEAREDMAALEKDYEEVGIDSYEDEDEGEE
UniProt Q13509: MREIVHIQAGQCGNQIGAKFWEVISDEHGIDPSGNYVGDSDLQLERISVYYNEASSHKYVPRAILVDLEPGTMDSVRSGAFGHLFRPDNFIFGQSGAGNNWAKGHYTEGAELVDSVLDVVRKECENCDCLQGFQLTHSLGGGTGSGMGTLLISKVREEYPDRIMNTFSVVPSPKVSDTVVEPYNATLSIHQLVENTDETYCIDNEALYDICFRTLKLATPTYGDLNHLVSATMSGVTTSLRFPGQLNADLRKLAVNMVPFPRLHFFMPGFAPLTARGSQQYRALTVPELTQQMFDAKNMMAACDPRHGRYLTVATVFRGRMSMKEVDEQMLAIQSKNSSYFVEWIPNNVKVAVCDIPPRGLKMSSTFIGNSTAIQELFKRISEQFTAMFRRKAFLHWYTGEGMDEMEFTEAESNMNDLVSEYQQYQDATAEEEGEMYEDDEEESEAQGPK
UniProt Q71U36: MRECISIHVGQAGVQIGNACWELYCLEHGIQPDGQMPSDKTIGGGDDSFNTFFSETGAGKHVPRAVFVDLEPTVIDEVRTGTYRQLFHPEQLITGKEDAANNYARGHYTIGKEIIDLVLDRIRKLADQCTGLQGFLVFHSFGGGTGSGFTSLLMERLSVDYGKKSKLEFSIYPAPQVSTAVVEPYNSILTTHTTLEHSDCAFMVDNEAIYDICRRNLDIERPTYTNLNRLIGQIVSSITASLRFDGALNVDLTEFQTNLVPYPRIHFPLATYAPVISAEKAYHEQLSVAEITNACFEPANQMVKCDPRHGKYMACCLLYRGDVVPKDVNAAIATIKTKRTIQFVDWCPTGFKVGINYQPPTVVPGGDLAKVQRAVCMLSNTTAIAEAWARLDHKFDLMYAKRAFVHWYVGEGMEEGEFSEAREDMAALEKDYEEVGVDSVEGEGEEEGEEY
UniProt P04350: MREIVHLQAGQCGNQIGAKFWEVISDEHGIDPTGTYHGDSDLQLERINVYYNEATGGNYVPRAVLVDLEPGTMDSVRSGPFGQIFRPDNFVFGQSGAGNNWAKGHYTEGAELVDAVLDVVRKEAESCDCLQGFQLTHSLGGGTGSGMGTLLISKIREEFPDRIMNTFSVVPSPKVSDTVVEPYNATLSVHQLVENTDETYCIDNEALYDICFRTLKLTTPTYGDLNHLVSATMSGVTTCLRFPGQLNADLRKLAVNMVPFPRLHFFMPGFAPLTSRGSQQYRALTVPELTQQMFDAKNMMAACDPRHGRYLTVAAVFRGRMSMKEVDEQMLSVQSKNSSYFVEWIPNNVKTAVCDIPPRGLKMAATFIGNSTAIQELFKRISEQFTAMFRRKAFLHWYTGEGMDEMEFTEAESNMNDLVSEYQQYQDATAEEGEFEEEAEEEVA
UniProt Q3ZCM7: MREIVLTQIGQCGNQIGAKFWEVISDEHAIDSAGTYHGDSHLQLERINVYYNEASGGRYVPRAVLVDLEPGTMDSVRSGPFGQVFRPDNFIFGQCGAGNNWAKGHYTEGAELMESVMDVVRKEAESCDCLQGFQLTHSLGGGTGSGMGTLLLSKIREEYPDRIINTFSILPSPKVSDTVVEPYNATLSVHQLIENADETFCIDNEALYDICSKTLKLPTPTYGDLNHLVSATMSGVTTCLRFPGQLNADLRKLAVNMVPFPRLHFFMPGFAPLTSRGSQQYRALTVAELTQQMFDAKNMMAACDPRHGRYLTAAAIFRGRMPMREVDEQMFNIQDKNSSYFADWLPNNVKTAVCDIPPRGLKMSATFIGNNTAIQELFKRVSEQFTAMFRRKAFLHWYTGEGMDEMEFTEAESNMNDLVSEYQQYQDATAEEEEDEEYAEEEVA
UniProt P07437: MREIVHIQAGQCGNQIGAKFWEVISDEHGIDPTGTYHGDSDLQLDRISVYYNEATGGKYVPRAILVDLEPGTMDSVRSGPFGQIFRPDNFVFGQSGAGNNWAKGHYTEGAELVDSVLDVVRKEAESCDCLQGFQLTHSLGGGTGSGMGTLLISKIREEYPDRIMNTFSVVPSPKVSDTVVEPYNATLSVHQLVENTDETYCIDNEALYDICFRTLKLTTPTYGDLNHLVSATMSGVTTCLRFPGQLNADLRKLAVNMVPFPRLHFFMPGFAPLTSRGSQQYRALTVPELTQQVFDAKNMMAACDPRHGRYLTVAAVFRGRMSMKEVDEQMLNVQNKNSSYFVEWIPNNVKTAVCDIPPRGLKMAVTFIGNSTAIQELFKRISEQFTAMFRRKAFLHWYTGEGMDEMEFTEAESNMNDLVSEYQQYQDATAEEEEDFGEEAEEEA
UniProt P68363: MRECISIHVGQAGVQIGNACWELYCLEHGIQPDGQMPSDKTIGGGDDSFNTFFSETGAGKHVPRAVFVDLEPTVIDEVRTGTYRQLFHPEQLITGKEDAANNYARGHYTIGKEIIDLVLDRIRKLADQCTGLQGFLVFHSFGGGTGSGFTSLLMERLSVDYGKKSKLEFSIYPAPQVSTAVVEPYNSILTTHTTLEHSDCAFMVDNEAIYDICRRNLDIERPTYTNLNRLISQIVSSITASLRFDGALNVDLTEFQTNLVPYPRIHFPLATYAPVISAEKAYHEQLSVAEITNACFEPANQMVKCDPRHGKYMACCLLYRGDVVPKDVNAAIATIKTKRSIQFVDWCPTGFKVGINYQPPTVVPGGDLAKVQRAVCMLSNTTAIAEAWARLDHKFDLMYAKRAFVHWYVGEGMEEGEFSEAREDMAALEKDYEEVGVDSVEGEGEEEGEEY
UniProt Q9BQE3: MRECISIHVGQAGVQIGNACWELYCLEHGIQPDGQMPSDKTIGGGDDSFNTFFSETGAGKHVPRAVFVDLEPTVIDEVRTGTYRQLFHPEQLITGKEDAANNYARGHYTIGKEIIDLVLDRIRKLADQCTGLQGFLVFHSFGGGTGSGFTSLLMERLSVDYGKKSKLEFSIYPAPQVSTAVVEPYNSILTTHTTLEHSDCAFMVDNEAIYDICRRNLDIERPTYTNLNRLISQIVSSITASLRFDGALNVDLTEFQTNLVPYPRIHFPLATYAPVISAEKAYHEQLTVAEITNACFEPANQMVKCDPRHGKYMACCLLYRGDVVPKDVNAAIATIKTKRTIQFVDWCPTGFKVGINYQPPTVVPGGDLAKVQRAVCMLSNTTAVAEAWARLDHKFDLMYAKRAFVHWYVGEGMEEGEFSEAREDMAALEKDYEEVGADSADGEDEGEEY
UniProt Q13885: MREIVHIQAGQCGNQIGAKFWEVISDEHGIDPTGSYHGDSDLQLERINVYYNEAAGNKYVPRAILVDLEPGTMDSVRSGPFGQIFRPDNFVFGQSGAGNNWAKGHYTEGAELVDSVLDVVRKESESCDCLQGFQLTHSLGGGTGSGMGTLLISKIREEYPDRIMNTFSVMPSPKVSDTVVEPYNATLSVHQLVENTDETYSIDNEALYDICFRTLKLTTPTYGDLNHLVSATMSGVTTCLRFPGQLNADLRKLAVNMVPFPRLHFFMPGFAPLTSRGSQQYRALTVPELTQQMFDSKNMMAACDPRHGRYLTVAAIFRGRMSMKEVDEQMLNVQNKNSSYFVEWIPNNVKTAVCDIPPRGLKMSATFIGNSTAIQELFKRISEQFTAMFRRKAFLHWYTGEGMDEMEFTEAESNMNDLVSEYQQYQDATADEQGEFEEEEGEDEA
UniProt Q9BVA1: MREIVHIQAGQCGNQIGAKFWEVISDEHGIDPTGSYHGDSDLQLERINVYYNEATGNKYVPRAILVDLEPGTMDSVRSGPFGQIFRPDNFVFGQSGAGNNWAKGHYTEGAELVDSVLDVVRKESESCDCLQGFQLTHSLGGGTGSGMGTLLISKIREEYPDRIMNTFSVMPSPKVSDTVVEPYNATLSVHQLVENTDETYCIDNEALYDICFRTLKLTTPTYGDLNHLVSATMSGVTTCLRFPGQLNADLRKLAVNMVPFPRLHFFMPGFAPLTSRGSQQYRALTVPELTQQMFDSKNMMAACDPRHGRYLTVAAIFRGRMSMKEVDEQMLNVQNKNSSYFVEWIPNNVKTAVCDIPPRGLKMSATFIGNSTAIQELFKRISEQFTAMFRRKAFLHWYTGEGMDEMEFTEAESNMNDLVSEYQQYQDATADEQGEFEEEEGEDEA
UniProt Q9BUF5: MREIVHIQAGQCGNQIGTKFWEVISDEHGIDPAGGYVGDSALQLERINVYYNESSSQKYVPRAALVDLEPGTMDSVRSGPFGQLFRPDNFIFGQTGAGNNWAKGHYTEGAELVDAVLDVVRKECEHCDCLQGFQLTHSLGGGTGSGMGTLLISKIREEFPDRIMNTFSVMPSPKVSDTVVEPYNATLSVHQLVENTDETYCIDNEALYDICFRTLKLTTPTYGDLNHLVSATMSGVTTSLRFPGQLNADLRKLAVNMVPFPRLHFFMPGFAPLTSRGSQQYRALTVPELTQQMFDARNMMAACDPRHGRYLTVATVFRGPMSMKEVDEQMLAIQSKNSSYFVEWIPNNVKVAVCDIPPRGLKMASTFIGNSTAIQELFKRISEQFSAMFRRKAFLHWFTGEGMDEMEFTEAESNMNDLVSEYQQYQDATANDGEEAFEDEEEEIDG

Experiments:
Tubulin (Homo sapiens) = Tubulin (Homo sapiens) (UniProt P68371+Q9H4B7+P0DPH7+P68366+Q13509+Q71U36+P04350+Q3ZCM7+P07437+P68363+Q9BQE3+Q6PEY2+Q13885+Q9BVA1+Q9BUF5); assay: Potency index, ratio of CA-2 IC50 to test compound IC50 for inhibition of tubulin polymerization (unknown origin); type: protein-complex assay
Homo sapiens [1] = organism: Homo sapiens; assay: Potency index, ratio of EG00229 IC50 to test compound IC50 for inhibition of [125I]-VEGF-A165 binding to NPR1 (unknown origin) transfected in HUVECs
Homo sapiens [2] = organism: Homo sapiens; assay: Selectivity index, ratio of IC50 for human PrECs to IC50 for human PC-3 cells

Ratio IC50 (Tubulin (Homo sapiens)): 2
Ratio IC50 (Homo sapiens [1]): 3
Ratio IC50 (Homo sapiens [2]): > 500
Structure (SMILES): COc1ccc(/C=C\c2cc(OC)c(OC)c(OC)c2)cc1NC(=O)CCC(=O)N[C@@H](CCCNC(=N)N)C(=O)O
